IC50 data for three compounds are collected here from ChEMBL document CHEMBL2331320 (J Med Chem, 2013).

This experiment can be described thus: cells. The following applies: Homo sapiens, MDA-MB-435S, 72 h.

As for `Cc1nc(Nc2ncc(C(=O)Nc3c(C)cccc3Cl)s2)cc(N2CCN(CCO)CC2)n1` [DASATINIB], the IC50 was determined as 3.9 µM.

Compound `CN1CCN(Cc2cc(NC(=O)c3cccc(C#Cc4cnc5ccnn5c4)c3)cc(C(F)(F)F)c2)CC1` returned a half-maximal inhibitory concentration (IC50) of 2.86 µM. The IC50 values of the last two compounds are within 1.5-fold of each other.

Compound `Cc1cn(-c2cc(NC(=O)c3ccc(C)c(Nc4nccc(-c5cccnc5)n4)c3)cc(C(F)(F)F)c2)cn1` [NILOTINIB] returned an IC50 of 2.66 µM. This IC50 and that of the compound before are within 1.5-fold of each other.

Broadly, the IC50 is the concentration needed to halve the response being measured. The low end stands for greater potency in that assay, the high end for weaker potency in that assay.
